From US8735406B2, “8-oxodihydropurine derivative” (Dainippon Sumitomo Pharma Co., Ltd., priority 2009, dated 2014) come the findings set out here.

By UniProt entry, the sequences of proteins in these tests, tags left out.
UniProt P97612, whole entry: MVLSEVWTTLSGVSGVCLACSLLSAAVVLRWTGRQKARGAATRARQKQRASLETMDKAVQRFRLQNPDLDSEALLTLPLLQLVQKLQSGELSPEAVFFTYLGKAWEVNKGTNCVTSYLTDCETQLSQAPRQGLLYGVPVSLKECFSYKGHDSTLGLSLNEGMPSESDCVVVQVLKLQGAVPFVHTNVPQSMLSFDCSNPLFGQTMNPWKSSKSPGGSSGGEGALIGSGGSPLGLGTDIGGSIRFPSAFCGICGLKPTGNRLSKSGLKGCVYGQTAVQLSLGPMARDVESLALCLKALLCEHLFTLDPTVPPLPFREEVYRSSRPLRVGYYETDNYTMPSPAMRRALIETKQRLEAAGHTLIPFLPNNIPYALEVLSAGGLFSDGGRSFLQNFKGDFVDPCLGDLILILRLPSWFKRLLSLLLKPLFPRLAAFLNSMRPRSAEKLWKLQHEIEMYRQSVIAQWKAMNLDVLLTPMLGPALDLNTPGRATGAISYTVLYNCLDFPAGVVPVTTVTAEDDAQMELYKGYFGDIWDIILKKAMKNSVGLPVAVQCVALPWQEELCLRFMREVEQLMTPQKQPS

Like-named read-outs stand apart in the source and are kept apart here.

The target in the assay is FAAH (Rattus norvegicus, UniProt P97612). Kind of assay: Determination of FAAH inhibitory activity in rat (rat brain membrane preparations, [3H]-anandamide hydrolysis). The note with it: for FAAH Inhibition, Inhibition Rate at 100 nM: 100 nM test substance.
The mark [1] stands for this setting: read-out: FAAH Inhibition IC50, test substance 0.1 nM to 1 μM.
Where [2] appears, read: read-out: FAAH Inhibition IC50, test substance 0.1 nM to 1 μM, tested form: HCl.

For `CCCOCc1ncc2c(n1)n(C)c(=O)n2C(=O)N1CC(c2ccc(OCC)cc2)C1`, the “FAAH Inhibition, Inhibition Rate at 100 nM” value (“FAAH Inhibition” for short) is on record as 82%. In addition, the half-maximal inhibitory concentration (IC50) under setting [1] was 0.04 µM.
Taken in the same sequence, the figures for `Cc1ccccc1Cc1ncc2c(n1)n(C(=O)N1CCCC1)c(=O)n2C` were 91% and 0.009 µM.
Taken in the same sequence, the figures for `CCOc1ccc(CCc2ncc3c(n2)n(C(=O)N2CCC2)c(=O)n3C)cc1` were 88% and 0.098 µM.
The like results for `CN(C)C(=O)n1c(=O)n(C)c2cnc(CCc3ccc(Cl)cc3)nc21` were, in that order, 75% and 0.023 µM.
`Cn1c(=O)n(C(=O)N2CCC2)c2nc(-c3cccc(OCc4ccccc4)c3)ncc21`: the “FAAH Inhibition” value stood at 78%. Besides, the IC50 under setting [1] was 0.044 µM.
As for `COCCOCc1ncc2c(n1)n(C)c(=O)n2C(=O)N1CC(c2ccc(F)cc2)C1`, the “FAAH Inhibition” value (tested form: HCl) is listed as 119%. For the same compound, the half-maximal inhibitory concentration (IC50) under setting [2] stood at 0.003 µM.
As for `CN(C)C(=O)n1c(=O)n(C)c2cnc(CCc3ccccc3)nc21`, the “FAAH Inhibition” value stood at 69%. Besides, under setting [1], the 50% inhibitory concentration (IC50) stood at 0.047 µM.
For `Cn1c(=O)n(C(=O)N2CCC2)c2nc(CCc3ccc(OCCF)cc3)ncc21`, for the setting “tested form: HCl”, the “FAAH Inhibition” value is 40%. The concentration for half-maximal inhibition (IC50) under setting [2] is 0.128 µM.
As to `CN(C)C(=O)n1c(=O)n(C)c2cnc(CCc3cccc(OCCF)c3)nc21`, the “FAAH Inhibition” value worked out at 27%. Moreover, under setting [1], the IC50 is greater than 0.1 µM.
Taken in the same sequence, the figures for `CCCOCc1ncc2c(n1)n(C)c(=O)n2C(=O)N1CC(c2cccc(C(F)(F)F)c2)C1` were 80% and 0.032 µM.
As to `Cn1c(=O)n(C(=O)N2CCC2)c2nc(CCc3ccc(OC(F)F)cc3)ncc21`, the “FAAH Inhibition” value was 100%. Further, the IC50 under setting [1] worked out at 0.007 µM.
Turning to `Cn1c(=O)n(C(=O)N2CCC2)c2nc(CCc3cccc(OCCF)c3)ncc21`, the “FAAH Inhibition” value (tested form: HCl) amounted to 26%. For the same compound, under setting [2], the IC50 is greater than 0.1 µM.

What is called IC50 is the concentration at which inhibition is half-maximal.
